# Antibody variant affinities, Ab-95 light chain, assay 2

Values reported by Engelhart et al. 2022, doi:10.1038/s41597-022-01779-4 (FLAb copy).

All variants were tested on one target, the spike HR2 peptide PDVDLGDISGINAS (SARS-CoV-2).

Parent scFv Ab-95: VH joined to VL by a 15-residue (Gly4Ser)3 linker. Changes lie in the light chain CDRs alone.
VH: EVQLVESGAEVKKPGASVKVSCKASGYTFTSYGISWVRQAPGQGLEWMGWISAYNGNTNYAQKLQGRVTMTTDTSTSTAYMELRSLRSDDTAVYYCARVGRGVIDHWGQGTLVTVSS
VL: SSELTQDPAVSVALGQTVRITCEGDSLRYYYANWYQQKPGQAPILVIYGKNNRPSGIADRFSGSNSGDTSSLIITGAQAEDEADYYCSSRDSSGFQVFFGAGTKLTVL

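The starting antibody came from a phage panning campaign against this peptide. Library AAYL52 holds single substitutions and randomly drawn double and triple substitutions in the CDRs. In AlphaSeq, yeast of one mating type display the scFv and yeast of the other type display the target. The frequency of each diploid, read from paired DNA barcodes, reflects how well the two displayed proteins bind. Scores were corrected for input abundance and mapped to Kd with protein pairs of known affinity run in the same pool. Each pool was mated in three replicate cultures.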

Variants are written as CDR1, CDR2 and CDR3 of the light chain (limits as in the source). Parent: EGDSLRYYYAN, GKNNRPS, SSRDSSGFQVF. The Kd shown is the geometric mean over detected replicates; a lower Kd is a better binder. "not detected" means that the variant was in the library but no mating with the target was seen in any replicate; the authors take this as a sign of poor binding, and no number exists. Background: pairings of library AAYL52 with three empty control strains gave a value in 28% of cases (median 8.2 µM, 5th percentile 800 nM). Values in that range, when seen in few replicates, are hard to tell from nonspecific mating. For each scFv, signals with the empty controls are counted beside the result. For reference, the parent read 200 nM as the reference entry and 180 nM as a member of this library.

CDR-L1 | CDR-L2 | CDR-L3 | Kd | seen in | signal with controls
EGDSLRYYYAN | GKNNRFS | SSRDSKKFQVF | 4.1 µM | 2/3 | 1/9
EGDSLTYYYAN | GKNNRPS | SSRWSSGPQVF | 61 µM | 2/3 | 2/9
EGIWLRYYYAN | GKNNRPS | SSRDSSFFQVF | not detected | 0/3 | 5/9
MGDSLRYYYAN | GKNNFPS | SSRDSSGFNVF | 270 µM | 2/3 | 2/9
EGDSLRYYYAD | NKMNRPS | SSRDSSGFQVF | 5.8 µM | 1/3 | 3/9
EGDSLRYYGAN | GKNNRPS | SSRDSSHFQVF | not detected | 0/3 | 4/9
EGDNLRYYYAN | GKNNRPS | SSRDESGGQVF | 29 µM | 2/3 | 1/9
EGQSLRYGYFN | GKNNRPS | SSRDSSGFQVF | 170 nM | 3/3 | 4/9
EGDSLRYYYAN | GKNSRMS | SCRDSSGFQVF | 120 nM | 3/3 | 3/9
EGDSLRYYYAA | GDNNRPS | SSRDSSGFQVE | 2.5 µM | 1/3 | 3/9
EGDSLRWYYKN | GSNNRPS | SSRDSSGFQVF | 5.6 µM | 2/3 | 1/9
EGDSLWYYYPN | KKNNRPS | SSRDSSGFQVF | 4.4 µM | 1/3 | 5/9
NGDSLRYYYAR | GVNNRPS | SSRDSSGFQVF | 4.4 µM | 3/3 | 5/9
EGDSLRYYYAN | CFNGRPS | SSRDSSGFQVF | 350 µM | 1/3 | 2/9
EGDSLRYSYAN | GKNNRPS | QSRSSSGFQVF | 31 nM | 3/3 | 4/9
EGDSLRYYWAN | GKNNRDS | SSRDSSGFQVI | not detected | 0/3 | 1/9
EGVSLRYCYAN | GKNNKPS | SSRDSSGFQVF | 470 nM | 3/3 | 3/9
EGDQLRYNYAN | GKRNRPS | SSRDSSGFQVF | not detected | 0/3 | 1/9
EGDSPRYYYAN | GKNTRPS | SSRDSSGFQHF | 190 µM | 1/3 | 0/9
VGDNLRYYYAN | GKNNRPS | SSRDSSGFKVF | 2.7 µM | 1/3 | 2/9
EGDSLRYYGAN | GKNIRPS | QSRDSSGFQVF | 140 nM | 3/3 | 2/9
EGDSLRYIYAN | GYNNRPS | SSRDSSGFQVF | 7.7 µM | 3/3 | 3/9
ETDSLRYYYAN | GKNNRPS | SSTDSSGFQVS | 19 µM | 3/3 | 6/9
PGDTLRYYYAN | GKNNRPS | SDRDSSGFQVF | 270 µM | 1/3 | 0/9
EGDSLRYYYAN | GKNNRSS | SSRDSSQFQRF | 99 µM | 1/3 | 1/9
EGDSLRYYYHN | GKNNRPC | SSRTSSGFQVF | 15 µM | 1/3 | 0/9
EGDSLRCYYAN | CKNNRPF | SSRDSSGFQVF | 4.1 µM | 2/3 | 3/9
EGDSLRYYYAN | GKNNRPS | SSRDSSGIQVI | 1.4 µM | 3/3 | 5/9
EGDSLRYVYAN | GKNNRPS | SSLDSSGRQVF | 260 nM | 3/3 | 2/9
EGCSLRYYYAN | GKNNFPS | SSRDRSGFQVF | 6.5 µM | 3/3 | 4/9
EGTSLRYYYAI | GKNNRPS | RSRDSSGFQVF | 16 µM | 1/3 | 3/9
EGDSLRYYYAN | GKNNRPS | SSDDSSGYIVF | 450 nM | 3/3 | 3/9
EGDSLRYYYGN | GKNNRPS | SSRDSSGFVYF | 4.9 µM | 2/3 | 4/9
EGDSLRYYYAN | GKQNRVC | SSRDSSGFQVF | 26 µM | 1/3 | 1/9
EGDSLRYYYAH | GKNNCPS | SSRDSSGFNVF | 4.8 µM | 1/3 | 3/9
ECDSLRYYYAN | GKNNRPS | SSRPSSGFQAF | 640 nM | 3/3 | 2/9
ESDSLRYYYSN | GKNNRPS | SSRWSSGFQVF | 1.7 µM | 1/3 | 3/9
EGDSLRYYYAN | GKNNRPS | MRRDSSGFPVF | not detected | 0/3 | 1/9
EGDLLRYYYAN | GKNNRIE | SSRDSSGFQVF | not detected | 0/3 | 3/9
EGDQLRYYYAN | GKNNRPS | HSQDSSGFQVF | 20 µM | 1/3 | 3/9
EADSLMYYYAN | GKNNRPS | SSDDSSGFQVF | 610 nM | 1/3 | 0/9
EGCSLRYVYAN | GKANRPS | SSRDSSGFQVF | 470 nM | 3/3 | 5/9
EGDSLRYYYAN | GKNNRPY | SSRDESGFQVW | 140 nM | 3/3 | 0/9
EGDSLRYYYAN | GKMNRPS | SSADSSGFQVV | 810 nM | 2/3 | 4/9
EGDSLRYYYAN | GKNNRPM | SSRLSSGFQVT | 85 µM | 2/3 | 4/9
EGDSLRYYNAN | GKNNRPM | SSRDSSGFQPF | 30 nM | 3/3 | 2/9
EGDSLWYHYAN | GKNNRPS | SSKDSSGFQVF | 48 nM | 3/3 | 6/9
EGDSLRYYYAN | GKNNRPT | SSLDSSQFQVF | 270 nM | 3/3 | 5/9
PGDSLRYYYAN | GKNNPPS | SSRDSKGFQVF | not detected | 0/3 | 4/9
EGDSLRYYYNS | GKNVRPS | SSRDSSGFQVF | 210 nM | 3/3 | 1/9
EGDSLRYYYKN | GKNNRDS | SSRDSSGFQVE | 7.8 µM | 3/3 | 1/9
EGVSLRYYYPN | GKNNRPS | SGRDSSGFQVF | 36 nM | 3/3 | 2/9
ELDSLRYYYAF | GKNNRPS | SSMDSSGFQVF | 5.4 µM | 1/3 | 3/9
EGDSLLYYYAN | GKNNRPS | SSRYLSGFQVF | not detected | 0/3 | 2/9
EGDSLDYYYAN | GKNNRPS | SSRDESGFQVF | 120 nM | 3/3 | 1/9

Excerpt, the first 7 entries:

CDR-L1,CDR-L2,CDR-L3,Kd,seen in,signal with controls
EGDSLRYYYAN,GKNNRFS,SSRDSKKFQVF,4.1 µM,2/3,1/9
EGDSLTYYYAN,GKNNRPS,SSRWSSGPQVF,61 µM,2/3,2/9
EGIWLRYYYAN,GKNNRPS,SSRDSSFFQVF,not detected,0/3,5/9
MGDSLRYYYAN,GKNNFPS,SSRDSSGFNVF,270 µM,2/3,2/9
EGDSLRYYYAD,NKMNRPS,SSRDSSGFQVF,5.8 µM,1/3,3/9
EGDSLRYYGAN,GKNNRPS,SSRDSSHFQVF,not detected,0/3,4/9
EGDNLRYYYAN,GKNNRPS,SSRDESGGQVF,29 µM,2/3,1/9